Data as given in US20070154954A1 (TRANSTECH PHARMA, published 2007).

Biological target: T1, fluorescent amyloid beta (1-40) peptide (human, fluorescein label; attachment site of the purchased peptide (Biosource) not stated in the examples; one embodiment describes N-terminal 5-carboxy-fluorescein)
T1 construct: Bought from Biosource; It may be preincubated 24-48 h at 37 C to form a pleated sheet (aggregated) structure before the assay; also called fluorescienated amyloid beta 1-40; fluoresceinated amyloid beta (1-40)
Experiment: fluorescence polarization, sRAGE at 40 nM

binding result: binds
B1: recombinant human sRAGE (receptor)
chain: AQNITARIGEPLVLKCKGAPKKPPQRLEWKLNTGRTEAWKVLSPQGGGPWDSVARVLPNGSLFLPAVGIQDEGIFRCQAMNRNGKETKSNYRVRVYQIPGKPEIVDSASELTAGVPNKVGTCVSEGSYPAGTLSWHLDGKPLVPNEKGVSVKEQTRRHPETGLFTLQSELMVTPARGGDPRPTFSCSFSPGLPRHRALRTAPIQPRVWEPVPLEEVQLVVEPEGGAVAPGGTVTLTCEVPAQPSPQIHWMKDGVPLPLPPSPVLILPEIGPQDQGTYSCVATHSSHGPQESRAVSISIIEPGEEGPTAGSVGGSGLG
notes: also called soluble RAGE
